Laboratory results from ChEMBL document CHEMBL1122030, “2-Arylpyrazolo[4,3-c]quinolin-3-ones: novel agonist, partial agonist, and antagonist of benzodiazepines” (J Med Chem, 1982).

By UniProt entry, the sequences of proteins in these tests, tags left out. Where a name states a change or a piece, a line headed by the entry shows the natural chain unless it says otherwise.
UniProt O09028: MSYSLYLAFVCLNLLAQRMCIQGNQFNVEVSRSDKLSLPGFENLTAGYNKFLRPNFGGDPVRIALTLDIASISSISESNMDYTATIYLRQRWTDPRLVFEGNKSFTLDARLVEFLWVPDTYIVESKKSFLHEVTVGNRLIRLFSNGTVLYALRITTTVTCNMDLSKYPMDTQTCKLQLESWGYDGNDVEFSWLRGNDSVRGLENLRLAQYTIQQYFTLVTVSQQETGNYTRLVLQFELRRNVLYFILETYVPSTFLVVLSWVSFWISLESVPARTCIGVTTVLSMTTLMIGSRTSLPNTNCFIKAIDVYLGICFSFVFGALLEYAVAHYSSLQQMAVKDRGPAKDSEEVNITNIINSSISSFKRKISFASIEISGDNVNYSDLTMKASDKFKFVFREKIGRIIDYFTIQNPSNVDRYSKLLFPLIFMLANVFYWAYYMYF
UniProt P15431: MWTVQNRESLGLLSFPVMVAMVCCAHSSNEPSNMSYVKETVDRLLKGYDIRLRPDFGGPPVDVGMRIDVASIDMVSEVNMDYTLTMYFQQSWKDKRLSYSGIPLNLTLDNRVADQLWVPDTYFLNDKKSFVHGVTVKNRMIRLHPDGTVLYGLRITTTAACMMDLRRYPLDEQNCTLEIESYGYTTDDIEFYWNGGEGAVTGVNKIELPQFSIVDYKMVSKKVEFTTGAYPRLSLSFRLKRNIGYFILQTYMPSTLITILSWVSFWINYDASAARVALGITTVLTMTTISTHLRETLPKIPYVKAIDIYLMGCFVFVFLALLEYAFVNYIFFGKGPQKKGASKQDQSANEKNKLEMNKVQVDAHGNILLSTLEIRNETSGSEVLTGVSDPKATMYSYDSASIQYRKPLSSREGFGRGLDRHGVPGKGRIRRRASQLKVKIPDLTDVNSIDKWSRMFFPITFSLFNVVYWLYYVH
UniProt P18506: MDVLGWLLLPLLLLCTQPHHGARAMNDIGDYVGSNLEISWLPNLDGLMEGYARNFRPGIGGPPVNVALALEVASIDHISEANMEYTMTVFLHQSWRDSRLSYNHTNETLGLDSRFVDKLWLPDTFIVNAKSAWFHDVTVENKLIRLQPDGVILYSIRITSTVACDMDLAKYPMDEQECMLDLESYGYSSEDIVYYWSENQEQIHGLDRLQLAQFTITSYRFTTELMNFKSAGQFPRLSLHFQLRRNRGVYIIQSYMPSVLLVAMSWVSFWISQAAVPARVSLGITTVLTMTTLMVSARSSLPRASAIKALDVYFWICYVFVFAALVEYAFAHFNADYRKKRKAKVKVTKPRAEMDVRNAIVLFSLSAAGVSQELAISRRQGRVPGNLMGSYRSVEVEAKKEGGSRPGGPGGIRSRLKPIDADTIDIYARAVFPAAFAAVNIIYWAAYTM
UniProt P18508: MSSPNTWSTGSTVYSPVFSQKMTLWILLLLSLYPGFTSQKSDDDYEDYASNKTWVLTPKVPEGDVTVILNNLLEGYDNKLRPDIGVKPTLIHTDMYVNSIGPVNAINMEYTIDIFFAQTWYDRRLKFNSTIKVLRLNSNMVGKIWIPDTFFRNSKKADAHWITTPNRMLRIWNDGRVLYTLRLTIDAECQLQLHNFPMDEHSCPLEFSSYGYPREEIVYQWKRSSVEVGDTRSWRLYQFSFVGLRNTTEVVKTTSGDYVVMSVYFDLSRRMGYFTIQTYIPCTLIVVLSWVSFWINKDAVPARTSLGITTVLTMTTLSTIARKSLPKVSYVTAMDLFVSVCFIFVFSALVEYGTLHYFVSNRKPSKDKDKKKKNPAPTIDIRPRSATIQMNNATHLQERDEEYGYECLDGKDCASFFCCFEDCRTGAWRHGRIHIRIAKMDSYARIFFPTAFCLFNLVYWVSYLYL
UniProt P19969: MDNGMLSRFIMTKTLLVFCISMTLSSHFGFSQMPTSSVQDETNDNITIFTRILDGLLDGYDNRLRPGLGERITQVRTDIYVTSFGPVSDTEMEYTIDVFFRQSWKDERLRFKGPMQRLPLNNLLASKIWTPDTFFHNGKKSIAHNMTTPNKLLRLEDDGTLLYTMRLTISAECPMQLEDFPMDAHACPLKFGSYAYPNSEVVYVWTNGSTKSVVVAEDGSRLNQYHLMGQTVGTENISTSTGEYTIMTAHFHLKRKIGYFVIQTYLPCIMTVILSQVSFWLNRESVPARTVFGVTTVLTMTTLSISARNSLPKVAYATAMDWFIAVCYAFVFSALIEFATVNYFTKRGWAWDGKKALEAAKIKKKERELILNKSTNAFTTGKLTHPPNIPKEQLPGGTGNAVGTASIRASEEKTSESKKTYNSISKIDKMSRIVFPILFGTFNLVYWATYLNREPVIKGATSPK
UniProt P20236: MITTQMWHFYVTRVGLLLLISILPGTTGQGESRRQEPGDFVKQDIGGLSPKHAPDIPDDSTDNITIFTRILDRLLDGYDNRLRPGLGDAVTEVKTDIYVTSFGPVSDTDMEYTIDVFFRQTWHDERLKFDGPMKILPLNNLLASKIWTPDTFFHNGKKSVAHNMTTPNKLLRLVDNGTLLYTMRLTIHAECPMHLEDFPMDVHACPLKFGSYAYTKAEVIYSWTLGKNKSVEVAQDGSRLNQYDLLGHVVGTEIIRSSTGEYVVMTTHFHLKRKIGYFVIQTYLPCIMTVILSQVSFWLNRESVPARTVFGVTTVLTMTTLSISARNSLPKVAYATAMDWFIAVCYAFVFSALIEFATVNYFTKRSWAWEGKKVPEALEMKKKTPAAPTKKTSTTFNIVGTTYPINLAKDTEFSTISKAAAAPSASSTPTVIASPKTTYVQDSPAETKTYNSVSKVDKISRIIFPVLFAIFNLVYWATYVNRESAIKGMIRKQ
UniProt P23574: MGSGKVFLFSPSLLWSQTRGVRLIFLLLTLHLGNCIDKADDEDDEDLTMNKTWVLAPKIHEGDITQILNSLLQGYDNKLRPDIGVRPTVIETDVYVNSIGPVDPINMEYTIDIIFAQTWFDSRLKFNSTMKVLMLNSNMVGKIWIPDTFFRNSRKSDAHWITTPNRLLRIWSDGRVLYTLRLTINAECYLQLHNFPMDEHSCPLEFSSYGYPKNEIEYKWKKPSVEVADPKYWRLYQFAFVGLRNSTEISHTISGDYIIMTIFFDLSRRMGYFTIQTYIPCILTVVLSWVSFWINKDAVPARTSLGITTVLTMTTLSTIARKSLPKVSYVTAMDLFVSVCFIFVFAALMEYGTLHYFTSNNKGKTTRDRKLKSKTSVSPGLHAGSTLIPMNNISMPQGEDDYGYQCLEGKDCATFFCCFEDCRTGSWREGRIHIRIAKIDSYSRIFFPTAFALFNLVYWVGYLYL
UniProt P23576: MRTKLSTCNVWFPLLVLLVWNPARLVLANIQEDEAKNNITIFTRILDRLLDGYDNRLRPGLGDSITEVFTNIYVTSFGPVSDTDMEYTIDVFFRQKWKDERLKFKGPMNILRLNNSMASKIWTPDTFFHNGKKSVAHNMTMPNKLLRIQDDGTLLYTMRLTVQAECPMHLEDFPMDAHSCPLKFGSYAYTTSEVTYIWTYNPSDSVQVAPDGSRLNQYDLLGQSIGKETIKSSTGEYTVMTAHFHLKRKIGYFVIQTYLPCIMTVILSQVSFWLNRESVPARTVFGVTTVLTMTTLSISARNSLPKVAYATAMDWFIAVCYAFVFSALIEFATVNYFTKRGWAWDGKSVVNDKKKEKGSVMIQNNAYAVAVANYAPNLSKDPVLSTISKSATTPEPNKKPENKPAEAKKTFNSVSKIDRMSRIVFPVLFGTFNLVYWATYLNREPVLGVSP
UniProt P28471: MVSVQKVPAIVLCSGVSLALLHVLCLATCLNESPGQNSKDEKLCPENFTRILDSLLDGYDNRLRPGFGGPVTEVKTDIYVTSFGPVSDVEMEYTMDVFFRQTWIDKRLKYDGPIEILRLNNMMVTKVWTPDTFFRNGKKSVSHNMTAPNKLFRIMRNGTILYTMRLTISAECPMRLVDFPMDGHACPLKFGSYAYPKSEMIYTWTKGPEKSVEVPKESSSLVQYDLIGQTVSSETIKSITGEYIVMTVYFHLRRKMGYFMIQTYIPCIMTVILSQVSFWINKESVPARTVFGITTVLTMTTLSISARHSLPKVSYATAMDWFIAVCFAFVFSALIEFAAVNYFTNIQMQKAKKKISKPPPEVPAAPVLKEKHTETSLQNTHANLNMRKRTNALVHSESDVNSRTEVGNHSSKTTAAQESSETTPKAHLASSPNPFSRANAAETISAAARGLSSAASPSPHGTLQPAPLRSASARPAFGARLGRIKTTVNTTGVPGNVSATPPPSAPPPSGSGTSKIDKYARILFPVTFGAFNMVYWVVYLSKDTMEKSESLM
UniProt P28473: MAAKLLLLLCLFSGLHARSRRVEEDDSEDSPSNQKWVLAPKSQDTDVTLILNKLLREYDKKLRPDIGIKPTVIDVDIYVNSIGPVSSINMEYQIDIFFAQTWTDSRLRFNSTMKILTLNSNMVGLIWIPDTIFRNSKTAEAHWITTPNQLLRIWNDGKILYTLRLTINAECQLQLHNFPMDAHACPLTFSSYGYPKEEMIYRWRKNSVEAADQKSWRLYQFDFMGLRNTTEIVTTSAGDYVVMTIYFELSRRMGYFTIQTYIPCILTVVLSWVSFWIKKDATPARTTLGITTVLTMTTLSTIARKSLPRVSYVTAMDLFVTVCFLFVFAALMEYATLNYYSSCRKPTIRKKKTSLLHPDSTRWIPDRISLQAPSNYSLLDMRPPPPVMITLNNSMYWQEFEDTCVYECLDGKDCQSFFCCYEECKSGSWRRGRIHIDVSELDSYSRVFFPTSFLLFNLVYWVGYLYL
UniProt P62813: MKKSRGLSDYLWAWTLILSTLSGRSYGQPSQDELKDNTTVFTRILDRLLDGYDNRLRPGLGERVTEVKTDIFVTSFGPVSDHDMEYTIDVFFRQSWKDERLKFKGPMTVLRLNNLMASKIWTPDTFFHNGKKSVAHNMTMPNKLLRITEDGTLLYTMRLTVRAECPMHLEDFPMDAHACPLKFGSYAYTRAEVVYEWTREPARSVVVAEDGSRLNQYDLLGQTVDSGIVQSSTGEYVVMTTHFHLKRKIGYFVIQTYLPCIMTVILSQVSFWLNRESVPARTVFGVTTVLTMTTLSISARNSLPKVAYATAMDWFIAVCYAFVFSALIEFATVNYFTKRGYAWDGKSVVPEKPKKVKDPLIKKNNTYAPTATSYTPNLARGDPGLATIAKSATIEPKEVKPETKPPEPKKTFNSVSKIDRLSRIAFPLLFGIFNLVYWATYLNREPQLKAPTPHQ
UniProt P63138: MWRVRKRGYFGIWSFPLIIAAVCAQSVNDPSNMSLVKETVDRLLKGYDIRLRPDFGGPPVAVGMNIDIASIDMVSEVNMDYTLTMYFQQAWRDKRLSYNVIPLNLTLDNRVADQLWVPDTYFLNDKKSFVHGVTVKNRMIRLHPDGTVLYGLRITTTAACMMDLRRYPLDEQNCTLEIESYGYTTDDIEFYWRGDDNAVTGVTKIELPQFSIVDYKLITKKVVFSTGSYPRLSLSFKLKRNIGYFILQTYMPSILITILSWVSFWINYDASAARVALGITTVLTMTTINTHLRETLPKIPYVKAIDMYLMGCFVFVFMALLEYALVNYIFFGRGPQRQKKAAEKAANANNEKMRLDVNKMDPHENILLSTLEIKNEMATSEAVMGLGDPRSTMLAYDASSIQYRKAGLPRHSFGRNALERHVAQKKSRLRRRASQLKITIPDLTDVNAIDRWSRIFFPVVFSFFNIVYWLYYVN
UniProt Q9ES14: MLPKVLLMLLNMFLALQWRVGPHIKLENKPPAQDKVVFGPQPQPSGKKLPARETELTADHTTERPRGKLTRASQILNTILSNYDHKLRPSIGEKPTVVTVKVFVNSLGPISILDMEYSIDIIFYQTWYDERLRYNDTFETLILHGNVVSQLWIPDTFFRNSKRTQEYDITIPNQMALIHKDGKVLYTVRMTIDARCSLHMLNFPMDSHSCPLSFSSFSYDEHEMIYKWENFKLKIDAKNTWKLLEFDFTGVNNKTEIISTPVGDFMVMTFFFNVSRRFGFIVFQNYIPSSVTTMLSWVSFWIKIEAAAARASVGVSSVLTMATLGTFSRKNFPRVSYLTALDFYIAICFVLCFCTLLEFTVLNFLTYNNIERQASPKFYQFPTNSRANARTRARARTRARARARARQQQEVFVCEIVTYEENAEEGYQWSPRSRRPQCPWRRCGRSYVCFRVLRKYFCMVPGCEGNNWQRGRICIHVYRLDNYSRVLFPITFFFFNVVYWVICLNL

Molecular target: GABA-A receptor; anion channel (Rattus norvegicus) (UniProt O09028+P15431+P18506+P18508+P19969+P20236+P23574+P23576+P28471+P28473+P30191+P62813+P63079+P63138+Q91ZM7+Q9ES14)

For `COc1ccc(-n2nc3c4ccccc4[nH]cc-3c2=O)cc1`, the ID50 was 0.81 mg/kg.
